{"source": "patent US10023888B2", "about": "“Microorganism for producing L-glutamine and method for producing L-glutamine using same” (dated 2018)", "test_system": "Corynebacterium glutamicum KFCC 10680", "test": "NTG mutagenesis treatment, cell death rate", "settings": "NTG final concentration about 200 mg/L, room temperature, about 20 minutes; plated on minimal medium, about 30° C., about 6 days"}
{"compound": "CN(N=O)C(=N)N[N+](=O)[O-]", "values": [{"measurement": "cell death rate", "result": "about 85%"}]}
